Results as given in patent publication US12606797B2, “Methods of detection of mechanically-activated platelet activation and uses thereof” (Arizona Board of Regents on Behalf of the University of …, priority 2018, dated 2026).

System: human platelets (GFP, PRP)
Assay: Platelet aggregation induced with biochemical agonists (optical aggregometer)
Type: cell-based
Details: platelet-rich plasma; 10 uM ADP, 10 μg/mL epinephrine; 1 mM CaCl2, 5 min, 37° C.
Protocol: Platelet aggregation was assessed in PRP or GFP samples employing dual channel optical aggregometer (Model 560-VS, Chrono-Log Corporation, Havertown, PA). […] Platelet count in aggregation mixture was adjusted to 150-200×10^3 plt/μL (in GFP) and to 300-350×10^3 plt/μL (in PRP), final CaCl2 concentration was 1 mM. Aggregation was started by adding mentioned agonists and running for 5 minutes at 37° C. with 1000 rpm stirring. The changes in relative light transmittance were recorded, and arbitrary values for each aggregation curve were calculated with Aggrolink software (Chrono-Log Corporation, Havertown, PA).
To define the molecular signature of SMPA, biochemical versus mechanical platelet activation by uniform shear stress applied in the hemodynamic shearing device (HSD) was compared. To induce biochemical activation, human GFP were treated with the panel of physiologically relevant soluble agonists-ADP, epinephrine, TRAP-6, thrombin, collagen or arachidonic acid. […] Initially, the P-selectin exposure, as a known marker of platelet activation and α-granule secretion, was detected employing mono immunostaining and quantified by flow cytometry. Those cells showing high fluorescence intensity (≥3000 AU) were gated as P-selectin positive platelets and marked as sub-population P6 (FIGS. 2A-2G).

CNC[C@H](O)c1ccc(O)c(O)c1 [epinephrine]
ability to induce platelet aggregation in PRP: induce platelet aggregation
